Earlier results as cited in publication PMC12530842, “Potent, Selective, and Drug‐Like G Protein‐Coupled Receptor Kinase 5 and 6 Inhibitors: Design, Synthesis, and X‐Ray Structural Studies” (Chemmedchem, 2025).

The chains behind the UniProt entries cited, without tags or fusion partners.
UniProt P34947, whole entry, looked up: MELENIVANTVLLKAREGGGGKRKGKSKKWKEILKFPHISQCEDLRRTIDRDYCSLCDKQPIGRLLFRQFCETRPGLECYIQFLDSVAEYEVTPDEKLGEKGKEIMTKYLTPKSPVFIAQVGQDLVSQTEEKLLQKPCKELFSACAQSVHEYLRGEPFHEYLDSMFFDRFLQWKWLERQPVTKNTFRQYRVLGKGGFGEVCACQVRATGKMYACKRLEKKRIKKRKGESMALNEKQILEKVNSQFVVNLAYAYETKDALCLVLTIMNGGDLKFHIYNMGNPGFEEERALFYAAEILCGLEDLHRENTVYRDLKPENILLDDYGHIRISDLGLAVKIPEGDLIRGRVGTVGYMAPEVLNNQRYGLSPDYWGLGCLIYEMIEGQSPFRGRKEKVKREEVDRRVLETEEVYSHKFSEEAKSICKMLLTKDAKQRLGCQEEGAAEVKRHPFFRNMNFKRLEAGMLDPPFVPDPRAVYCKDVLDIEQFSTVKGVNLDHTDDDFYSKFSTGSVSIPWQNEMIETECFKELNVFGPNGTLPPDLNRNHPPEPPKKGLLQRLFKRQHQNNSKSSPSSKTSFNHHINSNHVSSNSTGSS

Target: GRK5 (Homo sapiens, UniProt P34947)
Conditions: read-out: GRK5 IC50; earlier work; cited from earlier work

Question: With `Cc1[nH]c(/C=C2\C(=O)Nc3ccc(C(=O)N[C@H](C)c4ccc(F)cc4)cc32)c(C)c1NC(=O)CCl` [compound 1] as the compound, how does the IC50 read?
Answer: Its IC50 is 8.6 nM.
